As usually defined, the EC50 is the concentration giving half of the maximal effect.

One test has as its system SNB75 cells. In words: In vitro viability assay (Alamar blue), SNB75. Particulars: read-out: EC50 of SMC therapy, with low dose of VSVΔ51 (0.1 MOI). It counts as cell-based, human. On the technique in general: The colour change of resazurin is a common sign of viable cells or microbes.
A further test has as its system cancer cell lines. In words: In vitro viability assay (Alamar blue), cancer cell lines. Particulars: 5 μM monovalent SMCs, VSVΔ51 at differing MOIs. The format is cell-based.
A further test relates to EMT6 mammary tumors. In words: EMT6 mammary tumor model. It counts as in vivo, mouse. The following applies: compared to isotype matched antibody controls.

In the case of `CN[C@@H](C)C(=O)N[C@H](C(=O)N1CCC[C@H]1c1nc(C(=O)c2ccc(F)cc2)cs1)C1CCCCC1` [LCL161], the EC50 with SNB75 cells was determined as 0.0219 µM. Besides, in the test on cancer cell lines, the “synergy with VSVΔ51 to cause cancer cell death” value is “synergize”. In addition, in the test with EMT6 mammary tumors, the “effect of TNFα neutralizing antibodies on SMC and VSVΔ51 efficacy” value is given as “reverted the tumor regression”.

The record behind these values is US20210322545A1 (priority 2016, published 2021).
